# In US20250381168A1, “VLA4 INHIBITORS AND USES THEREOF” (Washington University, priority 2022, published 2025):
# Sequences of proteins named here, by UniProt entry; tags and fusion partners are left off. Residues count along the entry.
# UniProt P13612, 34-970: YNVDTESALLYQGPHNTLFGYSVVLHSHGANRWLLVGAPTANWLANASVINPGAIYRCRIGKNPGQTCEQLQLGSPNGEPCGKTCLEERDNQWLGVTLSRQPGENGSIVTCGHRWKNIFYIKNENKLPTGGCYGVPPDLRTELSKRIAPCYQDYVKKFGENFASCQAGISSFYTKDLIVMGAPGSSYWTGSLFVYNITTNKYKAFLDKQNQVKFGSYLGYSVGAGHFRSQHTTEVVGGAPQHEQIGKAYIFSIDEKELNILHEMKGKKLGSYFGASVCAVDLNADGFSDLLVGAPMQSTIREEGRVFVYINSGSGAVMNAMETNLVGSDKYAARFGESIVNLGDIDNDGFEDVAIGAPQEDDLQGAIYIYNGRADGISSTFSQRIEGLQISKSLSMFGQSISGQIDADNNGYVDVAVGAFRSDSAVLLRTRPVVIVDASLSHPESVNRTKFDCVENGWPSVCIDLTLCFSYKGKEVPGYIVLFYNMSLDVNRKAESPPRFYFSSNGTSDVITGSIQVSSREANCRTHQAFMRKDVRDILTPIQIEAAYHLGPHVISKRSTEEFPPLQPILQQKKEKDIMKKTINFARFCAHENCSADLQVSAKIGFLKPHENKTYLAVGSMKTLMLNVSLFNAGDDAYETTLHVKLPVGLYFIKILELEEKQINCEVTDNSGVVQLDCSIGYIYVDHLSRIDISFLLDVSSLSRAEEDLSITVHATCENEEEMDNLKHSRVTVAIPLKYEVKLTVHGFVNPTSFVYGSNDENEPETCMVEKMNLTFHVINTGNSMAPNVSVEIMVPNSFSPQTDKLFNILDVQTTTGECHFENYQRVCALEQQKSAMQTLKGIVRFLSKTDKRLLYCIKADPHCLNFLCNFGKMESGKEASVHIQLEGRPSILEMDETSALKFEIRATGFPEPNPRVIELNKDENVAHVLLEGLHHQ
# UniProt P26010, 20-723: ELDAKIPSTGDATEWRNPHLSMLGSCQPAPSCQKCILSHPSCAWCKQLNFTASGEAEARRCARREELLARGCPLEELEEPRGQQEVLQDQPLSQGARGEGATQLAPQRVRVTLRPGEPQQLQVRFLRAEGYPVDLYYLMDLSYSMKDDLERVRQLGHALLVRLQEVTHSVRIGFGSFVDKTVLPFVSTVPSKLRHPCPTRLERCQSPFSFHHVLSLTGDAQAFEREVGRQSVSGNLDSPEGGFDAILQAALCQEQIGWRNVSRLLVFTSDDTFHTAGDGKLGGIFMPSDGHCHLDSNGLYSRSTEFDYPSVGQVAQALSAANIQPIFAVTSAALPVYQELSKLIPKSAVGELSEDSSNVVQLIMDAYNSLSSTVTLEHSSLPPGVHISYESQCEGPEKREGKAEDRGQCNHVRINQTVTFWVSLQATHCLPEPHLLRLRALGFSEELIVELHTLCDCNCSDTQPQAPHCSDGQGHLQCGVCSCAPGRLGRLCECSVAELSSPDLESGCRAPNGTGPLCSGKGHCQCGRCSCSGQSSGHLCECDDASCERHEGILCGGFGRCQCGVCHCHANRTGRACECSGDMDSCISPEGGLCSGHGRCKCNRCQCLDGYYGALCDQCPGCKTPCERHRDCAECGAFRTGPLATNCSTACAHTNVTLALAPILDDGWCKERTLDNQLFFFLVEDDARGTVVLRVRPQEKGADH
# Target: integrin a4b7 (Homo sapiens (Human), UniProt P13612+P26010)
# Test: a4b7 solid phase receptor assay (SPRA)
# Conditions: recombinant human a4b7 binding to plate-coated human VCAM1 (TABLE 4)
# Experimental: The potency of compounds in blocking ligand binding to integrin a4b7 was determined by modification of previously described methods (Henderson et al, Nature Medicine, 2013). Briefly, purified human VCAM1 (R & D Systems) diluted to 5 μg/ml in TBS+ buffer (25 mM Tris pH 7.4, 137 mM NaCl, 2.7 mM KCl, 1 mM CaCl2), 1 mM MgCl2, 1 mM MnCl2) was added to wells of a 96-well transparent microtiter plate and incubated overnight at 4° C. Wells were washed 3 times with TBS+ and blocking buffer (TBS+ with 1% bovine serum albumin), the plate was incubated for 1 hr at 37° C., and then washed 3× with TBS+ buffer. Recombinant human a4b7 (R & D Systems) was diluted to 1 μg/ml in TBS+/0.1% bovine serum albumin. Test compounds were diluted into the integrin solution and added to the washed ligand-coated plate according to a standard template with each sample repeated in triplicate. After incubation for 2 hr at room temperature, the plate was washed 3× with 150 μl of TBS+ buffer. […] After incubation for 20 min at room temperature, plates were stopped with TMB stop solution (Sigma S5689) by colorimetric detection at 450 nm wavelength using a Tecan Safire II plate reader. Concentration-response curves were constructed by non-linear regression (best fit) analysis, and IC50 values were calculated for each compound. […]
structure (smiles),measurement,value
CCOCc1cc(OC)c(-c2ccc(C[C@H](NC(=O)[C@@H]3CCCN3S(=O)(=O)c3cc(Cl)cc(Cl)c3)C(=O)O)cc2)c(OC)c1 [Example C6],IC50,3.9 nM
